The subject of this assay is adjuvant-induced arthritis in rats. Description: Embodiment 3: oral Nib1 and methotrexate in adjuvant-induced arthritis in rats (joint score, paw volume, AUC). It counts as in vivo, Lewis rat. The note with it: day 22, Tofacitinib 5 mpk, MTX 0.05 mpk, Nib1 1 mpk, Nib1 1 mpk + MTX 0.05 mpk.

Here are results for one compound from patent US12409179B2, “Pharmaceutical combination of pimozide and methotrexate and use thereof” (GENEROS BIOPHARMA LTD., priority 2019, dated 2025).

Molecules are shown by their SMILES.

Take `CN(Cc1cnc2nc(N)nc(N)c2n1)c1ccc(C(=O)N[C@@H](CCC(=O)O)C(=O)O)cc1` [MTX, Methotrexate]: the “volume of the right hind foot, Average value” is given as 3.43 mL.
